Biological target: T1, Aurora kinase A (Homo sapiens) (UniProt O14965)
T1 sequence (whole entry): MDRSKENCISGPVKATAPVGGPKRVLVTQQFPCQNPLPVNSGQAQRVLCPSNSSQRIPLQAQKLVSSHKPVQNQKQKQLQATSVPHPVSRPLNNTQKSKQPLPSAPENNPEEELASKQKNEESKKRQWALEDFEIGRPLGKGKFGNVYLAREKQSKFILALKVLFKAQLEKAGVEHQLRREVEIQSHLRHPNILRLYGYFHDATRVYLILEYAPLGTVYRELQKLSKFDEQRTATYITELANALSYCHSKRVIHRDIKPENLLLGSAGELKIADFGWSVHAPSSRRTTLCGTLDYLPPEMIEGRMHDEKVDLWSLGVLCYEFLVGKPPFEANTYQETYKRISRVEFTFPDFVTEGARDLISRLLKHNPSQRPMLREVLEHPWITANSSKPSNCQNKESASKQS
Test: Inhibition AuroraA (unknown origin) at 1 uM relative to control

`CC(C)N1c2cc(Nc3nccc(-c4ccccc4)n3)ccc2N(C)C(=O)[C@H]1C` showed an inhibition of 67.4%.

From ChEMBL document CHEMBL4725348, “Rational Design and Evaluation of 6-(Pyrimidin-2-ylamino)-3,4-dihydroquinoxalin-2(1H)-ones as Polypharmacological Inhibitors of BET and Kinases” (J Med Chem, 2020)
